The record followed here is patent US7595158B2, “Bcl2L12 polypeptide activators and inhibitors” (Dana-Farber Cancer Institute, Inc., priority 2003, dated 2009).

This test deals with p53 mediated transcription. The experiment in a line: p53 luciferase reporter (PG13) in Ink4a/Arf deficient astrocytes. It counts as cell-based. The settings on record: normalized to βGal, vs vector control. The source says:
Activation of the p53 transcription factor in response to a variety of cellular stresses, including DNA damage and oncogene activation, initiates a program of gene expression that blocks the proliferative expansion of damaged cells. To asses the effect of Bcl2L12 polypeptides on p53 mediated transcription, Ink4a/Arf deficient astrocytes ectopically expressing a Bcl2L12-V5 polypeptide were transfected with increasing amounts of nucleic acid encoding a p53 polypeptide and a luciferase construct bearing a dimerized p53 binding site in its promoter (PG13). […] XIAP, a caspase-9 inhibitor, had no effect on the transcriptional activity of p53.

As to “XIAP: a caspase-9 inhibitor [reference compound]”, the “transcriptional activity of p53 (reporter activity)” value is on record as “no effect”.
